Where two headings read alike, the source gives them in different places.

Experiment [1] addresses T1, ferroportin (Homo sapiens, UniProt Q9NP59).
T1 sequence (Q9NP59 1-571): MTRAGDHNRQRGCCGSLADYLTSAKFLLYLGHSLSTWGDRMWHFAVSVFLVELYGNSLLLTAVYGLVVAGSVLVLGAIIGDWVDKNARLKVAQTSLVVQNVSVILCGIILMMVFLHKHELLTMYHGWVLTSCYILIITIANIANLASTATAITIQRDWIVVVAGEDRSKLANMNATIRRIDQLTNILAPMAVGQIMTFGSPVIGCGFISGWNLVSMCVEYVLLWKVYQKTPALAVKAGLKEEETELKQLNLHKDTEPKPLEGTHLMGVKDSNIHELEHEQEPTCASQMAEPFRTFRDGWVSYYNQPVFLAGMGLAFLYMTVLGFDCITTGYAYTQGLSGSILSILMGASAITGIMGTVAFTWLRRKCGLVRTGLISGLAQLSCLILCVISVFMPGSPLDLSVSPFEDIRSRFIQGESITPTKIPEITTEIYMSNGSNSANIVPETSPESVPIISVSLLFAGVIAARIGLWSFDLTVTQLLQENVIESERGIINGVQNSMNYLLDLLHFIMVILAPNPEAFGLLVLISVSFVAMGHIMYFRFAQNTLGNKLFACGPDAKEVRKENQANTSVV
Kind of experiment: T47D cell-based ferroportin internalization assay in presence of 0.5% mouse serum albumin (MSA). Set-up: a human breast carcinoma adherent cell line which endogenously expresses ferroportin; host or cells: T47D. The procedure:
The potency of the peptides in causing ferroportin internalization was evaluated in a T47D cell-based assay. […] In this internalization assay, the potency of the test peptides was evaluated in the presence of serum albumin, which is the main protein component in the blood. T47D cells were maintained in RPMI media (containing required amount of fetal bovine serum) and regularly sub-cultured. In preparation for the assay, the cells were seeded in 96-well plates at a density of 80-100 k cells per well in 100 ul volume and allowed to rest overnight. On the next day, test peptides were first prepared in dilution series (10-point series, starting concentration of ˜5 μM, typically 3-4×fold dilution steps), all with 0.5% mouse serum albumin (MSA purified from mouse serum; Sigma, A3139). The test peptide dilution series were allowed to incubate at room temperature for 30 min. Then the media was aspirated from the 96-well cell plate and test peptide dilution series were added. After 1 hr incubation, the media with test peptides was aspirated out and AF647-conjugated detection peptide was added at fixed concentration of 200 nM. The AF647-conjugated detection peptide was previously verified to bind to ferroportin and cause its internalization. The cells were washed again after a 2 hr incubation in preparation for flow cytometry analysis. The Median Fluorescence Intensity (MFI) of the AF647-positive population was measured (after removing dead cells and non-singlets from the analysis). The MFI values were used to generate a dose-response curve and obtain IC50 potencies for the test peptides. The IC50 potencies were calculated by using 4-parameter non-linear fitting function in Graphpad Prism, and the results are provided in Table 1C.

Experiment [2] addresses T1, ferroportin. As to the kind of experiment: FPN activity assay: internalization of ferroportin-GFP in stably transfected HEK293 cells. It counts as cell-based. The conditions noted are these: read-out: IC50: FPN. Set-up: expressed in transfected cells. The procedure:
Peptide analogues were tested in vitro for induction of internalization of the human ferroportin protein. Following internalization, the ferroporin protein is degraded. The assay used (FPN activity assay) measures a decrease in fluorescence of the receptor. The cDNA encoding the human ferroportin (SLC40A1) was cloned from a cDNA clone from Origene (NM_014585). The DNA encoding the ferroportin was amplified by PCR using primers also encoding terminal restriction sites for subcloning, but without the termination codon. The ferroportin receptor was subcloned into a mammalian GFP expression vector containing a neomycin (G418) resistance marker in such that the reading frame of the ferroportin was fused in frame with the GFP protein. The fidelity of the DNA encoding the protein was confirmed by DNA sequencing. HEK293 cells were used for transfection of the ferroportin-GFP receptor expression plasmid. The cells were grown according to standard protocol in growth medium and transfected with the plasmids using Lipofectamine (manufacturer's protocol, Invitrogen). The cells stably expressing ferroportin-GFP were selected using G418 in the growth medium (in that only cells that have taken up and incorporated the cDNA expression plasmid survive) and sorted several times on a Cytomation MoFloTM cell sorter to obtain the GFP-positive cells (488 nm/530 nm). The cells were propagated and frozen in aliquots. […] Compound was added to desired final concentration for at least 18 hours in the incubator. Following incubation, the remaining GFP-fluorescence was determined either by whole cell GFP fluorescence (Envision plate reader, 485/535 filter pair), or by Beckman Coulter QuantaTM flow cytometer (express as Geometric mean of fluorescence intensity at 485 nm/525 nm). Compound was added to desired final concentration for at least 18 hours but no more than 24 hours in the incubator. In certain experiments, reference compounds included native Hepcidin, Mini-Hepcidin, and RT-Mini-Hepcidin, which is an analog of mini-hepcidin. The “RI” in RI-Mini-Hepcidin refers to Retro Inverse. A retro inverse peptide is a peptide with a reversed sequence in all D amino acids. An example is that […] becomes […]. The EC50 of these reference compounds for ferroportin internalization/degradation was determined according to the FPN activity assay described above. These peptides served as control standards.

The mark [3] stands for this setting: Table 1C, T47D internalization, 0.5% mouse serum albumin, read-out: IC50: T47D MSA.
Setting [4] is: Table 1C, FPN internalization assay.
Setting [5] is: Table 1D, T47D internalization, 0.5% mouse serum albumin, read-out: IC50: T47D MSA.
Setting [6] is: Table 1D, FPN internalization assay.

A word on the IC50: it is the concentration that gives 50% inhibition. For `CC[C@H](C)[C@@H]1NC(=O)[C@@H](NC(=O)[C@@H]2CCCN2C(=O)[C@@H](NC(=O)[C@H](Cc2c[nH]cn2)NC(=O)[C@@H](NC(=O)[C@H](CCC(=O)O)NC(=O)c2ccccc2)[C@@H](C)O)C(c2ccccc2)c2ccccc2)CSSC[C@@H](C(N)=O)NC(=O)[C@@H](CCCCNC(=O)CCOCCOCCOCCOCCOCCOCCOCCOCCOCCOCCOCCOC)NC(=O)C[C@H](Cc2ccccc2)NC(=O)[C@H](CCCCNC(=O)COCCOCCNC(=O)COCCOCCNC(=O)CCCCCNC(=O)CCCCCCCCCCCCCCCCC(=O)O)NC1=O` [compound 50], the IC50 at ferroportin [1] was 11 to 100 nM. The DC50 on ferroportin [2] was in the range of 1 to 30 nM.
Consider `CC[C@H](C)[C@@H]1NC(=O)[C@@H](NC(=O)[C@@H]2CCCN2C(=O)[C@@H](NC(=O)[C@H](Cc2c[nH]cn2)NC(=O)[C@@H](NC(=O)[C@H](CCC(=O)O)NC(=O)CC(C)C)[C@@H](C)O)C(c2ccccc2)c2ccccc2)CSSC[C@@H](C(N)=O)NC(=O)[C@H](CCCN2CCOCC2)NC(=O)C[C@H](Cc2ccccc2)NC(=O)[C@H](CCCCNC(=O)COCCOCCNC(=O)COCCOCCNC(=O)CCCCCNC(=O)CCCCCCCCCCCCCCCCC(=O)O)NC1=O` [compound 71], for which the IC50 on ferroportin [1] (setting [3]) was in the range of 11 to 100 nM. Besides, the DC50 at ferroportin [2] (setting [4]) was in the range of 1 to 30 nM.
Take `CCCCCCCCCCCCCCCC(=O)NC(CC(=O)O)CC(=O)NCC[N+](C)(C)CC(=O)NCCCC[C@H]1C(=O)N[C@@H](Cc2ccccc2)CC(=O)N[C@H](CCCCN)C(=O)N[C@H](C(N)=O)CSSC[C@H](NC(=O)[C@@H]2CCCN2C(=O)[C@@H](NC(=O)[C@H](Cc2c[nH]cn2)NC(=O)[C@@H](NC(=O)[C@H](CCC(=O)O)NC(=O)CC(C)C)[C@@H](C)O)C(c2ccccc2)c2ccccc2)C(=O)N[C@@H]([C@@H](C)CC)C(=O)N1C` (stereo partly shown) [compound 89]: the IC50 on ferroportin [1] (setting [5]) was in the range of 1 to 10 nM. Besides, the DC50 on ferroportin [2] (setting [6]) was 1 to 30 nM.
Regarding `CCCCCCCCCCCCCCCC(=O)N[C@@H](CCC(=O)NCC[N+](C)(C)CC(=O)NC[C@@H]1NC(=O)[C@H]([C@@H](C)CC)NC(=O)[C@@H](NC(=O)[C@@H]2CCCN2C(=O)[C@@H](NC(=O)[C@H](Cc2c[nH]cn2)NC(=O)[C@@H](NC(=O)[C@H](CCC(=O)O)NC(=O)CC(C)C)[C@@H](C)O)C(c2ccccc2)c2ccccc2)CSSC[C@@H](C(N)=O)NC(=O)[C@@H](CCCCN)NC(=O)C[C@H](Cc2ccccc2)NC1=O)C(=O)O` [compound 86], the IC50 on ferroportin [1] (setting [5]) lay in the range of 1 to 10 nM. For the same molecule, on ferroportin [2] (setting [6]), the DC50 was in the range of 1 to 30 nM.
Regarding `CC[C@H](C)[C@@H]1NC(=O)[C@@H](NC(=O)[C@@H]2CCCN2C(=O)[C@@H](NC(=O)[C@H](Cc2c[nH]cn2)NC(=O)[C@@H](NC(=O)[C@H](CCC(=O)O)NC(=O)CC(C)C)[C@@H](C)O)C(c2ccccc2)c2ccccc2)CSSC[C@@H](C(N)=O)NC(=O)[C@@H](CCCCNC(=O)CCC(=O)N[C@H](CC(=O)[O-])C[N+](C)(C)C)NC(=O)C[C@H](Cc2ccccc2)NC(=O)[C@H](CCCCNC(=O)COCCOCCNC(=O)COCCOCCNC(=O)[C@H](CN)NC(=O)CCCCCCCCCCCCCCCCC(=O)O)NC1=O` [compound 53], at ferroportin [1] (setting [3]), the IC50 fell in the range of 11 to 100 nM. For the same molecule, on ferroportin [2] (setting [4]), the DC50 is 1 to 30 nM.
For `CC[C@H](C)[C@@H]1NC(=O)[C@@H](NC(=O)[C@@H]2CCCN2C(=O)[C@@H](NC(=O)[C@H](Cc2c[nH]cn2)NC(=O)[C@@H]2[C@H](O)CCN2C(=O)[C@H](CCC(=O)OC)NC(=O)CC(C)C)C(c2ccccc2)c2ccccc2)CSSC[C@@H](C(N)=O)NC(=O)[C@@H](CCCCN)NC(=O)C[C@H](Cc2ccccc2)NC(=O)[C@H](CCCCNC(=O)COCCOCCNC(=O)COCCOCCNC(=O)CCCCCNC(=O)CCCCCCCCCCCCCCCCC(=O)O)NC1=O` [compound 65], on ferroportin [1] (setting [3]), the IC50 was 11 to 100 nM.
Turning to `CC[C@H](C)[C@@H]1NC(=O)[C@@H](NC(=O)[C@@H]2CCCN2C(=O)[C@@H](NC(=O)[C@H](Cc2c[nH]cn2)NC(=O)[C@@H]2[C@H](O)CCN2C(=O)[C@H](CCC(=O)OC)NC(=O)CC(C)C)C(c2ccccc2)c2ccccc2)CSSC[C@@H](C(N)=O)NC(=O)[C@@H](CCCCN)NC(=O)C[C@H](Cc2ccccc2)NC(=O)[C@H](CCCCNC(=O)COCCOCCNC(=O)COCCOCCNC(=O)[C@H](CN)NC(=O)CCCCCCCCCCCCCCCCC(=O)O)NC1=O` [compound 66], the IC50 at ferroportin [1] (setting [3]) fell in the range of 11 to 100 nM.
As for `CC[C@H](C)[C@@H]1NC(=O)[C@@H](NC(=O)[C@@H]2CCCN2C(=O)[C@@H](NC(=O)[C@H](Cc2c[nH]cn2)NC(=O)[C@@H]2[C@H](O)CCN2C(=O)[C@H](CCC(=O)O)NC(=O)CC(C)C)C(c2ccccc2)c2ccccc2)CSSC[C@@H](C(N)=O)NC(=O)[C@@H](CCCCNC(=O)CCOCCOCCOCCOCCOCCOCCOCCOCCOCCOCCOCCOC)NC(=O)C[C@H](Cc2ccccc2)NC(=O)[C@H](CCCCNC(=O)COCCOCCNC(=O)COCCOCCNC(=O)CCCCCNC(=O)CCCCCCCCCCCCCCCCC(=O)O)NC1=O` [compound 70], on ferroportin [1] (setting [3]), the IC50 was in the range of 101 to 500 nM.
Regarding `CC[C@H](C)[C@@H]1NC(=O)[C@@H](NC(=O)[C@@H]2CCCN2C(=O)[C@@H](NC(=O)[C@H](Cc2c[nH]cn2)NC(=O)[C@@H](NC(=O)[C@H](CCC(=O)OC)NC(=O)CC(C)C)[C@@H](C)O)C(c2ccccc2)c2ccccc2)CSSC[C@@H](C(N)=O)NC(=O)[C@@H](CCCCN)NC(=O)[C@H](Cc2ccc(-c3nnn[nH]3)cc2)NC(=O)[C@H](CCCCNC(=O)COCCOCCNC(=O)COCCOCCNC(=O)[C@H](CN)NC(=O)CCCCCCCCCCCCCCCCC(=O)O)NC1=O` [compound 64], at ferroportin [1] (setting [3]), the half-inhibitory concentration (IC50) was in the range of 11 to 100 nM.
Still for that read-out and setting: next, `CC[C@H](C)[C@@H]1NC(=O)[C@@H](NC(=O)[C@@H]2CCCN2C(=O)[C@@H](NC(=O)[C@H](Cc2cn(C)cn2)NC(=O)[C@@H](NC(=O)[C@H](CCC(=O)O)NC(=O)CC(C)C)[C@@H](C)O)C(c2ccccc2)c2ccccc2)CSSC[C@@H](C(N)=O)NC(=O)[C@@H](CCCCNC(=O)CCOCCOCCOCCOCCOCCOCCOCCOCCOCCOCCOCCOC)NC(=O)C[C@H](Cc2ccccc2)NC(=O)[C@H](CCCCNC(=O)COCCOCCNC(=O)COCCOCCNC(=O)CCCCCNC(=O)CCCCCCCCCCCCCCCCC(=O)O)NC1=O` [compound 67]: 11 to 100 nM.
As to `CC[C@H](C)[C@@H]1NC(=O)[C@@H](NC(=O)[C@@H]2CCCN2C(=O)[C@@H](NC(=O)[C@H](Cc2c[nH]cn2)NC(=O)[C@H](CCO)NC(=O)[C@H](CCC(=O)O)NC(=O)CC(C)C)C(c2ccccc2)c2ccccc2)CSSC[C@@H](C(N)=O)NC(=O)[C@@H](CCCCNC(=O)CCOCCOCCOCCOCCOCCOCCOCCOCCOCCOCCOCCOC)NC(=O)C[C@H](Cc2ccccc2)NC(=O)[C@H](CCCCNC(=O)COCCOCCNC(=O)COCCOCCNC(=O)CCCCCNC(=O)CCCCCCCCCCCCCCCCC(=O)O)NC1=O` [compound 69], the IC50 at ferroportin [1] (setting [3]) is above 500 nM.

The values are drawn from patent US20250170216A1 (Protagonist Therapeutics, Inc., priority 2022, published 2025).
